Antibody variant affinities, Ab-14 heavy chain, assay 1

Values reported by Engelhart et al. 2022, doi:10.1038/s41597-022-01779-4 (FLAb copy).

All variants were tested on one target, the spike HR2 peptide PDVDLGDISGINAS (SARS-CoV-2).

Parent: Ab-14, a human scFv built as VH, three GGGGS repeats, VL. Only the CDRs of the heavy chain vary.
VH: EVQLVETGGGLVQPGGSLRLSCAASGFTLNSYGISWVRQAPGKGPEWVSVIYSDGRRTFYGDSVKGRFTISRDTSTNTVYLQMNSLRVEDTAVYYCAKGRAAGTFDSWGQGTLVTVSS
VL: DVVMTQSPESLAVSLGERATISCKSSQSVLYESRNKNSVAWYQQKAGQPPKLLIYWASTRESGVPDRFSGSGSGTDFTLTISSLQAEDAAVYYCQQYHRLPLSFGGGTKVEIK

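The starting antibody came from a phage panning campaign against this peptide. Library AAYL49 holds single substitutions and randomly drawn double and triple substitutions in the CDRs. The assay is AlphaSeq: two haploid yeast populations carry antibody and antigen on their surface. The frequency of each diploid, read from paired DNA barcodes, reflects how well the two displayed proteins bind. Scores were corrected for input abundance and mapped to Kd with protein pairs of known affinity run in the same pool. Mating was done three times.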

Sequences are complete VH domains. Affinities are written as log10 Kd with Kd in nM; a lower number is a better binder. A pair that was not seen in that replicate is written "ND"; this usually means weak binding, but a binder can also be missed. In this assay the parent's reference entry averaged 0.65; its copy inside this library read 4.11 (one replicate of three). Background: pairings of library AAYL49 with three empty control strains gave a value in 15% of cases (median 4.06, 5th percentile 2.83). Values in that range, when seen in few replicates, are hard to tell from nonspecific mating. Also given: how often the same scFv was detected with the empty control strains.

Variant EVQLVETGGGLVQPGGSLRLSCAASGSTLNSYGISWVRQAPGKGPEWVSVIYSDGRRTFYGDVVKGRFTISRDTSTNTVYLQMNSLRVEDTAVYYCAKGRAAGTFASWGQGTLVTVSS gave ND, ND, ND (controls 0 of 9).
Variant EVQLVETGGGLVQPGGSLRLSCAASGFTINSYGISWVRQAPGKGPEWVSVIYSDGRRTFYRDKVKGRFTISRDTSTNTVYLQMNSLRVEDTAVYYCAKGRAAGTFDSWGQGTLVTVSS gave 2.78, 2.22, 2.46 (controls 1 of 9).
Variant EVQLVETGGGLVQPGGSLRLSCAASGFTLNSYGISWVRQAPGKGPEWVSVNYSDDRRTFYGDSVKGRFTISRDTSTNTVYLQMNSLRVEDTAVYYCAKGRAAGTFDSWGQGTLVTVSS gave 4.85, 2.92, 5.00 (controls 3 of 9).
Variant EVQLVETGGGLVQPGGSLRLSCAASGFTLNSYGISWVRQAPGKGPEWVSVIYSGGRREFYGNSVKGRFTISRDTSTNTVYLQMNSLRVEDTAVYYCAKGRAAGTFDSWGQGTLVTVSS gave ND, ND, ND (controls 0 of 9).
Variant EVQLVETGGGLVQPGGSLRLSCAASFFTLNSYGISWVRQAPGKGPEWVSVIYSDGRRDFYGDSVKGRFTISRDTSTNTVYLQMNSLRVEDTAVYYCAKGRAAGTFDSWGQGTLVTVSS gave 6.14, ND, 5.37 (controls 2 of 9).
Variant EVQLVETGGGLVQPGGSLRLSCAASGFTLNSYGISWVRQAPGKGPEWVSVIYSDGQRTFYGDSVKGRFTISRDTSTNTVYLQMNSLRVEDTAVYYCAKQRPAGTFDSWGQGTLVTVSS gave ND, ND, ND (controls 0 of 9).
Variant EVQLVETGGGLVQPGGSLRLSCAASGFTLNSYGISWVRQAPGKGPEWVSVIYSDGRRTFYGDSVWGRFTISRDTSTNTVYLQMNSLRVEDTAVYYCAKGVAAGTFDQWGQGTLVTVSS gave 2.49, 1.85, 2.47 (controls 1 of 9).
Variant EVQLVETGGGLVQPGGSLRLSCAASGFTLNSYGISWVRQAPGKGPEWVSVIYMWGRRTFHGDSVKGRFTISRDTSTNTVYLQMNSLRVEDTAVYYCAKGRAAGTFDSWGQGTLVTVSS gave 4.98, 3.95, ND (controls 1 of 9).
Variant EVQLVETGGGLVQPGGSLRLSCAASGFGLNSYGISWVRQAPGKGPEWVSVIYSDGRRTFYGQSVKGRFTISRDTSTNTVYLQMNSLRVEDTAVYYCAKGRAAGTFDSWGQGTLVTVSS gave 1.81, 1.59, 2.08 (controls 0 of 9).
Variant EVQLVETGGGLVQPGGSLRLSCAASGFTPNSYGIYWVRQAPGKGPEWVSVIYSDGRRTFYGDSVKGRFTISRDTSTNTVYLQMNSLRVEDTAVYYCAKGSAAGTFDSWGQGTLVTVSS gave ND, 3.09, ND (controls 1 of 9).
Variant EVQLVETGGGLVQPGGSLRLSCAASGFTLNSYGISWVRQAPGKGPEWVSNISSDGRRTFYGDSCKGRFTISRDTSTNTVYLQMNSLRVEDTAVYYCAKGRAAGTFDSWGQGTLVTVSS gave ND, ND, ND (controls 3 of 9).
Variant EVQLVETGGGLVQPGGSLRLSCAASGFTLNSYGISWVRQAPGKGPEWVSVIYSDYRRTFYGDSVKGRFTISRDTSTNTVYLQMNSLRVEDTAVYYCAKGLAPGTFDSWGQGTLVTVSS gave ND, 4.97, ND (controls 6 of 9).
Variant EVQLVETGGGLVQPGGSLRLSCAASGFTLNSYGISWVRQAPGKGPEWVSVIYSDGRRTFYVDSTKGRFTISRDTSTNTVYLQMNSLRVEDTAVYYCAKGRAAGTFDSWGQGTLVTVSS gave ND, 3.10, 4.02 (controls 1 of 9).
Variant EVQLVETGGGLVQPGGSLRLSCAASGFTLNSYGISWVRQAPGKGPEWVSVIYSDGRRTFWGDSVKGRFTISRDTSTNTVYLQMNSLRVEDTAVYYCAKGRAAGQFDHWGQGTLVTVSS gave ND, 3.72, ND (controls 2 of 9).
Variant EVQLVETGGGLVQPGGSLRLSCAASGFTLNSYGISWVRQAPGKGPEWVSVIYADGRRTFYGDSSKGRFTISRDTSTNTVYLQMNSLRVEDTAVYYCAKGRAAGTFDSWGQGTLVTVSS gave 1.02, 1.11, 1.08 (controls 4 of 9).
Variant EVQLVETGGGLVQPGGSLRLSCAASGFTLNSGGISWVRQAPGKGPEWVSVIYSDGRFTFYGDRVKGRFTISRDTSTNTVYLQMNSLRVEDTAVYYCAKGRAAGTFDSWGQGTLVTVSS gave 3.71, 4.31, 4.99 (controls 4 of 9).
Variant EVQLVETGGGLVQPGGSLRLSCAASGTTLNSYGISWVRQAPGKGPEWVSVIYSDGRRTFYGDTVKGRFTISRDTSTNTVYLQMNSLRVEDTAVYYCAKGRPAGTFDSWGQGTLVTVSS gave ND, 3.77, 4.55 (controls 2 of 9).
Variant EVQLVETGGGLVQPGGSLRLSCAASGFTLNSYQISWVRQAPGKGPEWVSVIYSCGRRTEYGDSVKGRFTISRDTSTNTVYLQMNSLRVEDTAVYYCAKGRAAGTFDSWGQGTLVTVSS gave ND, ND, ND (controls 1 of 9).
Variant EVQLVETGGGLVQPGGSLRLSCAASGFTLNSYGTSWVRQAPGKGPEWVSVIYSDGRRTFYGDSVKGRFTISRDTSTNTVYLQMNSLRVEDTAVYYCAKGRAWGQFDSWGQGTLVTVSS gave ND, ND, ND (controls 0 of 9).
Variant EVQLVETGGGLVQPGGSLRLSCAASGFTDNSYYISWVRQAPGKGPEWVSVIYSDGRRTFYGDSVKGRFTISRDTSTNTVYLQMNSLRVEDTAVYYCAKGRAAGTFDSWGQGTLVTVSS gave 4.79, ND, ND (controls 3 of 9).
Variant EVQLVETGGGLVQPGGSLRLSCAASGVTLNSYGINWVRQAPGKGPEWVSVIYSDGRRTMYGDSVKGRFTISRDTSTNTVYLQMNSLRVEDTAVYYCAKGRAAGTFDSWGQGTLVTVSS gave ND, 4.56, ND (controls 0 of 9).
Variant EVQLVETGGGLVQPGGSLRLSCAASGFTFNSYGISWVRQAPGKGPEWVSVIYVDGRRTFYSDSVKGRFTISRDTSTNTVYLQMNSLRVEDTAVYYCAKGRAAGTFDSWGQGTLVTVSS gave ND, ND, ND (controls 0 of 9).

Top 2 of the variants detected in all replicates, tightest first:

The variant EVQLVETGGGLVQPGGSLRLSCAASGFTLNSYGISWVRQAPGKGPEWVSVIYADGRRTFYGDSSKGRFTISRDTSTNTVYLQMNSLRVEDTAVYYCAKGRAAGTFDSWGQGTLVTVSS showed 1.02, 1.11, 1.08 (controls 4 of 9).
The variant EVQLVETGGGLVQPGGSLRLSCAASGFGLNSYGISWVRQAPGKGPEWVSVIYSDGRRTFYGQSVKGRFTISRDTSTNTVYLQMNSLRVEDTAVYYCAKGRAAGTFDSWGQGTLVTVSS showed 1.81, 1.59, 2.08 (controls 0 of 9).